87 molecules from PubChem BioAssay AID2716 (Broad Institute, 2010) can be followed below.

The list shows a part of the results, in another mix than the full data. Some salts or complexes appear as unconnected parts, following the source record. Calls of active or inactive are those of the source.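 Rule for the calls: active = every valid replicate shows activation above 250% relative to neutral control wells; inactive = the rest, any valid replicate at or below 250%.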

The assay is described as follows: yeast Mot1-301 growth rescue at high temperature, primary screen, SUMOylation pathway inhibitor project, S. cerevisiae, ATP luminescence, 38.5C (AID 2716).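 Note: OY570 slx delta 5 strain wells were the positive control but not used for scaling.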 Conditions: S. cerevisiae Mot1-301 growth rescue, at 18.8 µM, active compounds read high, percent above DMSO median, 100 means doubled.
For `O=[N+]([O-])c1cc([N+](=O)[O-])c(OC2CCCCC2O)c([N+](=O)[O-])c1` (configuration not stated), the growth rescue is inactive: -4.35%.
Under `CCCCCOc1ccc(NP(C)(=O)Oc2ccc(Cl)cc2Cl)cc1` (configuration not stated) stands inactive: -9.3%.
Consider `CP(=O)(Nc1ccccc1)Oc1ccc(F)cc1` (configuration not stated), for which the growth rescue is inactive: 45.8%.
Under `CCN(CC)CCCOC(=O)C(O)(c1ccccc1)C1CCCCC1` (configuration not stated) stands inactive: -6.94%.
The result for `COc1ccc(OP(C)(=O)Nc2ccc(SC(F)(F)F)cc2)cc1` (configuration not stated) reads inactive: 5.72%; that for `CCOC(=O)c1ccc(NP(C)(=O)Oc2ccc(F)cc2)cc1` (configuration not stated), inactive: -1.14%.
Under `COc1ccc2c(c1O)-c1c(O)c(OC)cc3c1[C@H](C2)[N+](C)(C)CC3.O=[N+]([O-])c1cc([N+](=O)[O-])c([O-])c([N+](=O)[O-])c1[O-]` stands inactive: -0.016%; under `O=C(OCCN1CCN(CCOCc2ccccc2)CC1)C(O)(c1ccccc1)c1ccccc1`, inactive: -22.4%; under `O=C(OC1CN2CCC1CC2)c1ccc([N+](=O)[O-])cc1` (configuration not stated), inactive: -0.686%.
For `CC(C)c1ccc(OP(C)(=O)Nc2ccc(SC(F)(F)F)cc2)cc1` (configuration not stated), the growth rescue is inactive: -14%.
Regarding `CP(=O)(Nc1ccccc1F)Oc1ccccc1` (configuration not stated), the growth rescue was inactive: -8.27%.
As for `Cc1ccccc1NP(C)(=O)Nc1ccccc1C`, the growth rescue was inactive: -0.216%.
The result for `CP(=O)(Nc1ccc2c(c1)OCCO2)Oc1ccccc1` (configuration not stated) reads inactive: -6.67%; that for `CCOP(C)(=S)SCC(=O)NC(C)(CC)C(=O)O` (configuration not stated), inactive: 5.82%; that for `CP(=O)(Nc1ccc(SC(F)(F)F)cc1)Oc1ccc(F)cc1` (configuration not stated), inactive: 86.5%.
For `O=[N+]([O-])c1cc([N+](=O)[O-])c(NCC2CCS(=O)(=O)C2)c([N+](=O)[O-])c1` (configuration not stated), the growth rescue was inactive: -7.29%.
Under `O=[N+]([O-])c1ccc(OP2(=O)COCCO2)cc1` (configuration not stated) stands inactive: -1.31%; under `COc1ccc(NP(C)(=O)Oc2ccccc2OC)cc1` (configuration not stated), inactive: 169%.
Under `CN(C)CCOC(=O)C(O)(c1ccccc1)C1CCCCC1` (configuration not stated) stands inactive: -11.5%; under `COc1ccc(OP(C)(=O)Nc2cccc(Br)c2)cc1` (configuration not stated), inactive: -22.2%; under `CP(=O)(OC12CC3CC(CC(C3)C1)C2)OC12CC3CC(CC(C3)C1)C2`, inactive: 61%.
The result for `CCOC(=O)c1ccc(NP(C)(=O)Oc2ccc(Cl)cc2)cc1` (configuration not stated) reads inactive: 10.1%.
Consider `Nc1ccc2c(ccc3cccnc32)n1.O=[N+]([O-])c1cc([N+](=O)[O-])c(O)c([N+](=O)[O-])c1`, for which the growth rescue is inactive: -11.4%.
For `CN(C)C(=O)c1c([N+](=O)[O-])cc([N+](=O)[O-])cc1[N+](=O)[O-]`, the growth rescue is inactive: -14.1%.
As for `CP(=O)(Nc1ccc(Cl)cc1)Oc1ccc(F)cc1` (configuration not stated), the growth rescue is inactive: -1.29%.
Under `CC(C)(C)c1ccc(OP(C)(=O)O)cc1` stands inactive: 1.56%; under `COc1ccccc1OP(C)(=O)Nc1ccccc1Br` (configuration not stated), inactive: -21.3%; under `CCc1ccc(OP(C)(=O)Nc2cccnc2)cc1` (configuration not stated), inactive: 23.4%.
The result for `CP(=O)(Oc1ccccc1)N1CCOC1=O` (configuration not stated) reads inactive: 28.2%; that for `O=C(OCCCN1CCCC1)C(O)(c1ccccc1)C1CCCCC1` (configuration not stated), inactive: 23.1%.
Take `COc1ccccc1OP(C)(=O)Nc1c(C)n(C)n(-c2ccccc2)c1=O` (configuration not stated): the growth rescue was inactive: -1.71%.
The result for `COc1ccc(OP(C)(=O)Nc2ccc(Br)cc2)cc1` (configuration not stated) reads inactive: -1.82%; that for `CCN(CC)CC(O)COC(=O)C(O)(c1ccccc1)C1CCCCC1` (configuration not stated), inactive: 7.84%; that for `CCc1ccc(OP(C)(=O)O)cc1`, inactive: -0.825%.
Under `COc1ccccc1OP(C)(=O)Nc1ccc(C)cc1C` (configuration not stated) stands inactive: 33.7%; under `CP(=O)(Nc1ccccn1)Oc1ccccc1` (configuration not stated), inactive: 14.1%; under `O=[N+]([O-])c1cc([N+](=O)[O-])c(Nc2ccccn2)c([N+](=O)[O-])c1`, inactive: -24.9%.
In the case of `Cc1c(NP(C)(=O)Oc2ccc(C(C)C)cc2)c(=O)n(-c2ccccc2)n1C` (configuration not stated), the growth rescue was inactive: -6.48%.
The result for `CN(C)CCOC(=O)C(O)(c1ccccc1)C1CCCC1` (configuration not stated) reads inactive: 1.72%; that for `COc1ccc(OP(C)(=O)Nc2ccccn2)cc1` (configuration not stated), inactive: -5.25%; that for `COc1ccccc1OP(C)(=O)Nc1ccc(Br)cc1` (configuration not stated), inactive: -10.7%.
In the case of `CP(=O)(OCCOc1ccccc1)OCCOc1ccccc1`, the growth rescue was inactive: 21.1%.
As to `Cc1nc2ccc3ccccc3c2o1.O=[N+]([O-])c1cc([N+](=O)[O-])c(O)c([N+](=O)[O-])c1`, the growth rescue is inactive: 58.7%.
In the case of `COc1ccc(OP(C)(=O)Nc2ccccc2Br)cc1` (configuration not stated), the growth rescue is inactive: 242%.
Take `COc1ccccc1OP(C)(=O)Nc1ccc(C)c(C)c1` (configuration not stated): the growth rescue is active: 330%.
Consider `Cc1cc(C)cc(OP(C)(=O)Nc2cccc(C(F)(F)F)c2)c1` (configuration not stated), for which the growth rescue was inactive: -6.7%.
As for `COc1ccccc1OP(C)(=O)Nc1cc(Cl)ccc1C` (configuration not stated), the growth rescue was inactive: 5.5%.
The result for `Cc1cc(C)cc(OP(C)(N)=O)c1` (configuration not stated) reads inactive: 274%.
Under `CCOC(=O)c1ccc(NP(C)(=O)Oc2ccccc2)cc1` (configuration not stated) stands inactive: 4.08%; under `Cc1ccc(NP(C)(=O)Oc2ccccc2)c(C)c1` (configuration not stated), inactive: -11.1%; under `COc1ccccc1OP(C)(=O)Nc1ccc(C)cc1` (configuration not stated), inactive: -4.36%.
With `Cc1cccc(C)c1OP(C)(N)=O` (configuration not stated), the growth rescue is inactive: -12.8%.
Under `CC(C)(C)c1ccc(OP(C)(=O)Nc2ccc(SC(F)(F)F)cc2)cc1` (configuration not stated) stands inactive: 1.55%; under `O=[N+]([O-])c1ccc2c(c1)C=Nc1ccccc1O2`, inactive: -36.6%; under `O=[N+]([O-])c1cc([N+](=O)[O-])c(Nc2cccnc2)c([N+](=O)[O-])c1`, inactive: 89.7%.
In the case of `CCN(CC)CCCOC(=O)C(O)(c1ccccc1)c1ccccc1`, the growth rescue was inactive: -9.97%.
The result for `CP(=O)(Nc1ccccn1)Oc1ccc(Cl)cc1` (configuration not stated) reads inactive: -30.8%.
Under `CCOP(C)(=S)SCC(=O)NC(C)C(=O)O` (configuration not stated) stands inactive: -5.97%; under `CCOC(=O)c1ccc(NP(C)(=O)Oc2ccc(OC)cc2)cc1` (configuration not stated), inactive: 6.19%; under `O=[N+]([O-])c1cc([N+](=O)[O-])c(O)c([N+](=O)[O-])c1.c1ccc(Oc2ccncc2)cc1`, inactive: 112%.
Turning to `Cc1cc(C)cc(OP(C)(=O)Nc2ccc(SC(F)(F)F)cc2)c1` (configuration not stated), the growth rescue was inactive: 14.6%.
The result for `CCc1ccc(OP(C)(=O)N2CCN(c3ccc([N+](=O)[O-])cc3)CC2)cc1` (configuration not stated) reads inactive: -4.25%.
Take `CP(=O)(NC(=O)Nc1ccccc1)Oc1ccccc1` (configuration not stated): the growth rescue was inactive: 0.893%.
As to `CP(=O)(Oc1ccccc1)OC(c1ccccc1)C(F)(F)F` (configuration not stated), the growth rescue is inactive: -1.28%.
With `Cc1cccc(C)c1OP(C)(=O)Nc1ccc(SC(F)(F)F)cc1` (configuration not stated), the growth rescue was inactive: 10.3%.
Under `CP(=O)(Nc1ccc(SC(F)(F)F)cc1)Oc1ccc(Cl)cc1` (configuration not stated) stands inactive: 4.93%.
In the case of `COc1ccccc1OP(C)(=O)Nc1ccccc1` (configuration not stated), the growth rescue is inactive: -33.5%.
Turning to `CP(=O)(Nc1ccccc1Br)Oc1ccccc1` (configuration not stated), the growth rescue is inactive: -3.57%.
The result for `CP(=S)(Nn1cnnc1)Oc1ccccc1` (configuration not stated) reads inactive: 1.94%; that for `CP(=O)(Nc1ccc(SC(F)(F)F)cc1)Oc1ccccc1` (configuration not stated), inactive: 7.61%; that for `CCCOc1ccc(NP(C)(=O)Oc2ccc(Cl)cc2)cc1` (configuration not stated), inactive: 264%.
For `COc1ccccc1OP(C)(=O)Nc1c(C)cccc1C` (configuration not stated), the growth rescue is inactive: 7.39%.
Under `CN1CCCCC1COC(=O)C1(O)c2ccccc2CCc2ccccc21` (configuration not stated) stands inactive: -13.3%.
The result for `CCOC(=O)C(CC)C1=NC(C)(C)Cc2ccccc21.O=[N+]([O-])c1cc([N+](=O)[O-])c(O)c([N+](=O)[O-])c1` (configuration not stated) reads inactive: -4.04%; that for `O=[N+]([O-])c1cc([N+](=O)[O-])c(Nc2nnnn2CCO)c([N+](=O)[O-])c1`, inactive: 10.8%; that for `CC1=C2N=C(C=C3N=C(C(C)=C4[N-][C@@](C)([C@@H]5N=C1[C@](C)(CCC(=O)NC[C@@H](C)OP(=O)([O-])O[C@H]1[C@@H](O)[C@@H](n6cnc7cc(C)c(C)cc76)O[C@@H]1CO)[C@H]5CC(N)=O)[C@@](C)(CC(N)=O)[C@@H]4CCC(N)=O)[C@@](C)(CC(N)=O)[C@@H]3CCC(N)=O)C(C)(C)[C@@H]2CCC(N)=O.[C-]#N.[Co+3]`, inactive: 17%.
The result for `Cc1nc2ccc3ccccc3c2s1.O=[N+]([O-])c1cc([N+](=O)[O-])c(O)c([N+](=O)[O-])c1` reads inactive: -28.3%; that for `O=[N+]([O-])c1cc([N+](=O)[O-])c(-c2cnn(-c3ccccc3)c2)c([N+](=O)[O-])c1`, active: 469%.
For the molecule `O=[N+]([O-])c1cc([N+](=O)[O-])c(-n2nnc3ccccc32)c([N+](=O)[O-])c1`, the growth rescue was inactive: 0.825%.
As to `CP(=O)(Nc1cccc(Br)c1)Oc1ccccc1` (configuration not stated), the growth rescue is inactive: -7.02%.
Under `Cc1cc(C)cc(OP(C)(=O)Nc2ccccn2)c1` (configuration not stated) stands inactive: -15.6%.
Take `Cc1ccc(C)c(NP(C)(=O)Oc2ccccc2)c1` (configuration not stated): the growth rescue was inactive: -15.8%.
The result for `Cc1cc(C)cc(OP(C)(=O)Nc2ccc(C)cc2C)c1` (configuration not stated) reads inactive: -7.45%.
As to `CCOC(=O)c1ccc(NP(C)(=O)Oc2cc(C)cc(C)c2)cc1` (configuration not stated), the growth rescue was inactive: 6.59%.
For `COc1ccccc1OP(C)(=O)Nc1cccc(Br)c1` (configuration not stated), the growth rescue is inactive: 187%.
For the molecule `CC1=NCCc2c1[nH]c1ccccc21.O=[N+]([O-])c1cc([N+](=O)[O-])c(O)c([N+](=O)[O-])c1`, the growth rescue is inactive: -11.7%.
Under `O=C(O)c1cccc(Nc2c([N+](=O)[O-])cc([N+](=O)[O-])cc2[N+](=O)[O-])c1` stands inactive: -5.42%.
